Assay: Clinical trial: adverse events, discontinuations, deaths, malignancies
Assay type: in vivo, human
Settings: all three treatment groups
Text: Treatment experienced HIV-1 patients infected with a CXCR4 using viral population were selected according to the following protocol and the first group with optimised background therapy (OBT) alone was compared against groups on OBT plus maraviroc once a day and OBT plus maraviroc twice a day.
The eligible patients were randomised into three groups based on the drug regimens they received.
Group 1: dptimised background therapy (OBT) (3-6 antiretroviral drugs [not counting low dose retonavir] of which at least one is active and no more than one is an NNRTI) plus maraviroc 150 mg po taken once daily (QD).
Group 2: optimised background therapy (as above) plus maraviroc 150 mg po taken twice daily (BID).
Group 3: optimised background therapy (as above) plus placebo.

## (N-{(1S)-3-[3-isopropyl-5-methyl-4H-1,2,4-triazole-4-yl]-exo-8-azabicyclo[3.2.1]oct-8-yl}-1-phenylpropyl)-4,4-difluorocyclohexanecarboxamide [maraviroc]
  cases of lymphoma or adenocarcinoma: no cases
